## Measured affinities in a library of Ab-95 light chain variants

Antigen: PDVDLGDISGINAS, a 14-residue peptide of the SARS-CoV-2 spike HR2 region.

Parent scFv Ab-95: VH joined to VL by the linker GGGGSGGGGSGGGGS. Changes lie in the light chain CDRs alone.
VH: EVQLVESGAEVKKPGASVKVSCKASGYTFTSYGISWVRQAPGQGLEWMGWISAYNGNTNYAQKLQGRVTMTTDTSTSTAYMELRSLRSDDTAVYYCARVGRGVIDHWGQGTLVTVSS
VL: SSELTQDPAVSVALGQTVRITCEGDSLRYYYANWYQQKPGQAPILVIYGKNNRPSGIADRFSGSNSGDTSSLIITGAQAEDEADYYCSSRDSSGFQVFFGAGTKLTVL

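The starting antibody came from a phage panning campaign against this peptide. In library AAYL52, one, two or three CDR residues were substituted; doubles and triples were drawn at random. In AlphaSeq, yeast of one mating type display the scFv and yeast of the other type display the target. After mating in shaken culture at 30 °C for 16 h, diploids were selected and their barcode pairs sequenced. Read counts were normalised to the haploid input and turned into Kd by a linear fit to BCL2-family pairs of known affinity, for each replicate. Mating was done three times.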

Substitutions are numbered in sequence along the VL above, starting at 1 (not Kabat). Affinities are written as log10 Kd with Kd in nM; a lower number is a better binder. The mean shown is taken over the replicates in which the pair was detected. A pair that was not seen in any replicate is written "no signal"; this usually means weak binding, but a binder can also be missed.

log10 Kd (nM), mean	detected	changes
2.75	3/3	L27A/Y29Q/K50Q
3.77	3/3	D25T/A32G/S88L
5.44	1/3	N33K/S88Q/S93I
3.27	3/3	S26H/R53V/S55V
1.35	3/3	N52T/S89A/S92T
1.64	3/3	R28G/S88L/G94M
4.92	2/3	L27I/S89M/Q96E
4.55	1/3	G24I/Y29C/G49E
1.09	3/3	Y31D/S92E/G94A
3.82	1/3	G24W/S26M
4.40	1/3	A32N/N33P/K50I
no signal	0/3	L27F/N33V/R90N
2.41	3/3	N52L/G94W/F95S
no signal	0/3	Y31A/G49R/R90F
3.23	3/3	K50F/N52A
3.20	2/3	Y31N/K50R/N51P
2.57	2/3	D25H/P54I/R90A
3.50	3/3	E23V/S55P/F95K
2.44	3/3	E23K/G24F/F98Y
4.58	2/3	D25E/N33Q/S92W
4.47	2/3	S26A/N33Q/Q96K
0.73	3/3	Y30N/N51M
3.07	2/3	G24A/P54W/S55E
2.70	3/3	Y30R/S93A/G94C
3.99	2/3	S89F/V97H/F98Y
4.16	3/3	R53Q/P54F/S88A
3.10	3/3	S89W/D91P/S92M
3.54	1/3	K50W/D91V/S92L
no signal	0/3	G49A/R90T
3.12	3/3	E23H/R28D/F95H
no signal	0/3	R53G/R90F/F98K
1.47	3/3	Y30S/Y31C/N52C
2.38	3/3	S89I/D91V/Q96P
2.77	3/3	K50N/G94D
4.34	3/3	Y29L/K50D/V97F
4.50	2/3	N33C/G49D/F95I
2.56	3/3	S55K/S92M
3.71	1/3	R28V/R53Q/G94D
3.60	3/3	E23Y/Y31K/F98E
1.26	3/3	Y30A/A32T/S92I
4.47	1/3	S26Q/S92G
3.74	1/3	Y29V/G49H/S88F
3.51	2/3	E23Y/R28I/G49E
2.97	3/3	L27F/S88P/R90V
4.06	1/3	K50W/S93V/V97Q
2.61	3/3	Y29P/N52D/S92D
4.52	1/3	D25C/G49W/K50A
3.91	2/3	E23T/D25N/S26C
3.44	2/3	P54K/D91N/Q96H
3.89	2/3	G49E/P54K
2.92	1/3	G24P/Y30S/G49H
2.97	3/3	K50V/S93G/Q96V
2.87	2/3	D25E/R53F/Q96N

Excerpt, the first 4 entries:

| changes | log10 Kd (nM), mean | detected |
|---|---|---|
| L27A/Y29Q/K50Q | 2.75 | 3/3 |
| D25T/A32G/S88L | 3.77 | 3/3 |
| N33K/S88Q/S93I | 5.44 | 1/3 |
| S26H/R53V/S55V | 3.27 | 3/3 |

In this assay the parent's reference entry averaged 2.31; its copy inside this library read 2.25. Background: pairings of library AAYL52 with three empty control strains gave a value in 28% of cases (median 3.91, 5th percentile 2.90). Values in that range, when seen in few replicates, are hard to tell from nonspecific mating.

Reference: Engelhart et al. 2022, doi:10.1038/s41597-022-01779-4. File: FLAb, binding data.